Assay [1] deals with fasted, diabetic Zucker rats. The experiment in a line: Acute in vivo insulin response after intravenous peptide. Also on record: species or system rat. The settings on record: 0.4 nmol/kg i.v.
The test system of assay [2] is fasted, diabetic Zucker rats. The experiment in a line: Duration of in vivo insulinotropic action after intraperitoneal peptide. The conditions noted are these: 0.4 nmol/kg i.p., up to 24 h. Also noted: species or system rat.

The structures appear in SMILES notation.

For `CC[C@H](C)[C@H](NC(=O)[C@H](Cc1ccccc1)NC(=O)[C@H](CCC(=O)O)NC(=O)[C@H](CCCCN)NC(=O)[C@H](C)NC(=O)[C@H](C)NC(=O)[C@H](CCC(N)=O)NC(=O)CNC(=O)[C@H](CCC(=O)O)NC(=O)[C@H](CC(C)C)NC(=O)[C@H](Cc1ccc(O)cc1)NC(=O)[C@H](CO)NC(=O)[C@H](CO)NC(=O)[C@@H](NC(=O)[C@H](CC(=O)O)NC(=O)[C@H](CO)NC(=O)[C@@H](NC(=O)[C@H](Cc1ccccc1)NC(=O)[C@@H](NC(=O)CNC(=O)[C@H](CCC(=O)O)NC(=O)CNC(=O)[C@@H](N)Cc1c[nH]cn1)[C@@H](C)O)[C@@H](C)O)C(C)C)C(=O)N[C@@H](C)C(=O)N[C@@H](Cc1c[nH]c2ccccc12)C(=O)N[C@@H](CC(C)C)C(=O)N[C@H](C(=O)N[C@@H](CCCCN)C(=O)NCC(=O)N[C@@H](CCCNC(=N)N)C(N)=O)C(C)C` [GLP-1 Gly^8], the “peak plasma insulin concentrations” value in assay [1] is “potently increased plasma insulin concentrations”; in assay [1] (listed as peptide 1), “more potent than equimolar GLP-1”. Besides, the “duration of action on plasma insulin levels” value in assay [2] was “intermediate between GLP-1 and exendin-4”.

The record behind these values is US10941187B2 (The United States of America, as represented by the …, priority 2001, dated 2021).
